Max activation data for 50 compounds are collected here from PubChem BioAssay AID652048 (National Center for Advancing Translational Sciences (NCATS), 2013).

Sequences of proteins named here, by UniProt entry; tags and fusion partners are left off.
UniProt P35462, whole entry: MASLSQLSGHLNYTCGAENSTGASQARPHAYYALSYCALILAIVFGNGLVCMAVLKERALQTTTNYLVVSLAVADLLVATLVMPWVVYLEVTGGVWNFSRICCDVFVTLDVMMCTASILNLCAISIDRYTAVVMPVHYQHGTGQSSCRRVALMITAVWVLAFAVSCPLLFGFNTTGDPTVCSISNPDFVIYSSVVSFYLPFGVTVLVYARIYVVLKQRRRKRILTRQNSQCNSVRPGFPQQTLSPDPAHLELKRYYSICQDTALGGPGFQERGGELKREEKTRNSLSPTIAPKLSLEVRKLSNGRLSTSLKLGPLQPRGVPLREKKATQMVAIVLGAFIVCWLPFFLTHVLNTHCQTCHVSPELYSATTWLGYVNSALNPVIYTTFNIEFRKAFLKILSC

The structures appear in SMILES notation. Where “and” joins values, the source holds several entries; their conditions need not be identical. Identical values can stand only once. The list shows a part of the results, in another mix than the full data. Calls of active or inactive are those of the source. No stated cut-off is given here; in the data, active means max activation above about 30%; inactive means the rest.

The target in this experiment is D(3) dopamine receptor (Homo sapiens) (UniProt P35462). Briefly: qHTS of D3 Dopamine Receptor Agonist: qHTS. Further: 0% is about no effect. As to conditions: D3R DiscoveRx beta-arrestin cells, luminescence, 90 min; hits give high values. The text has this:
D3 DARs represent a very important target for the treatment of several neuropsychiatric disorders. Indeed, one of the most promising therapeutic applications for the D3 DAR is in the area of addiction and related disorders. […] These findings have been observed with a number of addictive substances including cocaine, amphetamine, nicotine, and alcohol. […] Antagonism of the D3 DAR may also be therapeutic in the treatment of schizophrenia or psychosis. […] Since the D3 DAR is expressed in areas of the CNS associated with the control of mood and emotion, it has been hypothesized that selective antagonism of the D3 DAR may be effective in treating psychosis without inducing the motor side effects typically seen with D2 DAR antagonists.
This part of the project aims to discover novel agonist.
NIH Chemical Genomics Center [NCGC]
NIH Molecular Libraries Probe Centers Network [MLPCN]
Assay Submitter (PI): David Sibley, NINDS
Freshly passaged cells are plated in 1536 well white, solid bottom plates at a density of 1500 cells/well in 3microl of complete media. After an overnight incubation at 37 degrees C in 5% CO2, cells are loaded with 23nl of test compound from the compound library (as well as dopamine controls) using a 1536 pintool and incubated at 37 degrees C for 90 minutes. Two microliters of DiscoveRx reagent is then added to all cells, and they are incubated for an additional 30 - 60 minutes at room temperature. Following incubation, luminescence is measured on a ViewLux CCD-based luminometer reader using a 20 sec exposure time.
Background: In qHTS, concentration-response curves come from the screen itself.
With `Cc1c([N+](=O)[O-])cc([N+](=O)[O-])c(Br)c1[N+](=O)[O-]`, the max activation is inactive: -0.919%.

Consider `CCCCCOc1ccc(NP(C)(=O)Oc2ccc(Cl)cc2Cl)cc1` (stereo not given), for which the max activation is inactive: 3.23%.

With `CP(=O)(Nc1ccccc1)Oc1ccc(F)cc1` (stereo not given), the max activation is inactive: 1.65%.

Regarding `O=[N+]([O-])c1cccc([N+](=O)[O-])c1`, the max activation is inactive: -0.97% and inactive: -6.44%.

With `O=[N+]([O-])OCC(CO[N+](=O)[O-])(CO[N+](=O)[O-])CO[N+](=O)[O-]`, the max activation was inactive: 0.362%.

Take `CC1=NCCc2c1[nH]c1ccccc21.O=[N+]([O-])c1cc([N+](=O)[O-])c(O)c([N+](=O)[O-])c1`: the max activation was inactive: -6.64%.

On to `COc1ccccc1OP(C)(=O)Nc1cccc(Br)c1` (stereo not given), for which the max activation is inactive: -11.9%.

On to `Cc1cc(C)cc(OP(C)(=O)Nc2ccc(C)cc2C)c1` (stereo not given), for which the max activation was inactive: 4.56%.

Regarding `CCOC(=O)c1ccc(NP(C)(=O)Oc2cc(C)cc(C)c2)cc1` (stereo not given), the max activation is inactive: -7.52%.

Take `CP(=O)(Nc1cccc(Br)c1)Oc1ccccc1` (stereo not given): the max activation is inactive: -15.8%.

In the case of `Cc1cc(C)cc(OP(C)(=O)Nc2ccccn2)c1` (stereo not given), the max activation is inactive: 12.2%.

Regarding `Cc1ccc(C)c(NP(C)(=O)Oc2ccccc2)c1` (stereo not given), the max activation was inactive: 0.0048%.

For `O=[N+]([O-])c1cc([N+](=O)[O-])c(-n2nnc3ccccc32)c([N+](=O)[O-])c1`, the max activation was inactive: 3.49%.

Regarding `CC(C)N(CCCl)C(C)C`, the max activation was inactive: -0.354%.

Consider `CN(Cc1cccnc1)C(=O)COc1ccc(Cl)c(Cl)c1.O=[N+]([O-])c1cc([N+](=O)[O-])c(O)c([N+](=O)[O-])c1`, for which the max activation is inactive: 1.53%.

With `O=[N+]([O-])c1cc([N+](=O)[O-])c(-c2cnn(-c3ccccc3)c2)c([N+](=O)[O-])c1`, the max activation is inactive: -6.45%.

For the compound `Cc1nc2ccc3ccccc3c2s1.O=[N+]([O-])c1cc([N+](=O)[O-])c(O)c([N+](=O)[O-])c1`, the max activation is inactive: -4.74%.

Consider `O=[N+]([O-])c1cc([N+](=O)[O-])c(Nc2nnnn2CCO)c([N+](=O)[O-])c1`, for which the max activation was inactive: -3.84%.

Turning to `CC1=C2N=C(C=C3N=C(C(C)=C4[N-][C@@](C)([C@@H]5N=C1[C@](C)(CCC(=O)NC[C@@H](C)OP(=O)([O-])O[C@H]1[C@@H](O)[C@@H](n6cnc7cc(C)c(C)cc76)O[C@@H]1CO)[C@H]5CC(N)=O)[C@@](C)(CC(N)=O)[C@@H]4CCC(N)=O)[C@@](C)(CC(N)=O)[C@@H]3CCC(N)=O)C(C)(C)[C@@H]2CCC(N)=O.[C-]#N.[Co+3]`, the max activation is inactive: -52.9%.

In the case of `CN1CCCCC1COC(=O)C1(O)c2ccccc2CCc2ccccc21` (stereo not given), the max activation is inactive: -9.41%.

Regarding `COc1ccccc1OP(C)(=O)Nc1c(C)cccc1C` (stereo not given), the max activation was inactive: -6.27%.

Take `CP(=O)(Nc1ccc(SC(F)(F)F)cc1)Oc1ccccc1` (stereo not given): the max activation was inactive: 3.96%.

`CCCOc1ccc(NP(C)(=O)Oc2ccc(Cl)cc2)cc1` (stereo not given): the max activation was inactive: 1.4%.

For `CP(=S)(Nn1cnnc1)Oc1ccccc1` (stereo not given), the max activation was inactive: -3.55%.

Regarding `COc1ccccc1OP(C)(=O)Nc1ccccc1` (stereo not given), the max activation was inactive: -0.605%.

As for `CP(=O)(Nc1ccccc1Br)Oc1ccccc1` (stereo not given), the max activation was inactive: 9.41%.

Consider `CP(=O)(Oc1ccccc1)OC(c1ccccc1)C(F)(F)F` (stereo not given), for which the max activation was inactive: 2.14%.

As to `CP(=O)(Nc1ccc(SC(F)(F)F)cc1)Oc1ccc(Cl)cc1` (stereo not given), the max activation is inactive: -4.96%.

`Cc1cccc(C)c1OP(C)(=O)Nc1ccc(SC(F)(F)F)cc1` (stereo not given): the max activation is inactive: 0.904%.

For `Cc1cc(C)cc(OP(C)(=O)Nc2ccc(SC(F)(F)F)cc2)c1` (stereo not given), the max activation is inactive: 2.6%.

For `CCc1ccc(OP(C)(=O)N2CCN(c3ccc([N+](=O)[O-])cc3)CC2)cc1` (stereo not given), the max activation is inactive: -5.14%.

`CP(=O)(NC(=O)Nc1ccccc1)Oc1ccccc1` (stereo not given): the max activation was inactive: -2.85%.

As for `CCOP(C)(=S)SCC(=O)NC(C)C(=O)O` (stereo not given), the max activation is inactive: 6.12%.

For the compound `CN(C)CCS`, the max activation was inactive: -19.3%.

Take `O=[N+]([O-])c1cc([N+](=O)[O-])c(O)c([N+](=O)[O-])c1.c1ccc(Oc2ccncc2)cc1`: the max activation was inactive: -6.39%.

On to `CCOC(=O)c1ccc(NP(C)(=O)Oc2ccc(OC)cc2)cc1` (stereo not given), for which the max activation is inactive: 7.38%.

For `CP(=O)(Nc1ccccn1)Oc1ccc(Cl)cc1` (stereo not given), the max activation was inactive: 2.58%.

For `CCN(CC)CCCOC(=O)C(O)(c1ccccc1)c1ccccc1`, the max activation is inactive: -9.41%.

Consider `COc1ccccc1-c1ccccn1.O=[N+]([O-])c1cc([N+](=O)[O-])c(O)c([N+](=O)[O-])c1`, for which the max activation was inactive: -6.35%.

As to `O=[N+]([O-])[O-].[NH4+]`, the max activation is inactive: 11.7%.

For the compound `O=[N+]([O-])c1cc([N+](=O)[O-])c(Nc2cccnc2)c([N+](=O)[O-])c1`, the max activation was inactive: 9.35%.

With `Cc1cccc(C)c1OP(C)(N)=O` (stereo not given), the max activation is inactive: -0.511%.

Turning to `CC(C)(C)c1ccc(OP(C)(=O)Nc2ccc(SC(F)(F)F)cc2)cc1` (stereo not given), the max activation was inactive: -5.77%.

On to `O=[N+]([O-])c1ccc2c(c1)C=Nc1ccccc1O2`, for which the max activation is inactive: -10.6%.

Take `CCOC(=O)c1ccc(NP(C)(=O)Oc2ccccc2)cc1` (stereo not given): the max activation is inactive: -3.68%.

With `Cc1ccc(NP(C)(=O)Oc2ccccc2)c(C)c1` (stereo not given), the max activation was inactive: 0.901%.

As for `COc1ccccc1OP(C)(=O)Nc1ccc(C)cc1` (stereo not given), the max activation is inactive: -3.29%.

Turning to `COc1ccc(OP(C)(=O)Nc2cccc(F)c2)cc1` (stereo not given), the max activation was inactive: 4.28%.

As to `COc1ccccc1OP(C)(=O)Nc1cc(Cl)ccc1C` (stereo not given), the max activation is inactive: -2.95%.

In the case of `Cc1cc(C)cc(OP(C)(N)=O)c1` (stereo not given), the max activation was inactive: -5.79%.
